Source: patent US11407757B2

The compounds below were run on Gas6 ligand induced AKT phosphorylation (assay: Gas6 ligand induced AKT phosphorylation, western blotting in H1299 NSCLC cells). Settings: Homo sapiens, NCI-H1299, read-out: inhibition activity against Gas6 ligand induced AKT phosphorylation.
Assay type: cell-based
Protocol: The potent compounds selected in EXAMPLE 2 were tested in Gas6 ligand induced AKT phosphorylation via western blotting assay. For western blotting experiments, H1299 NSCLC cells were cultured in serum free RPMI-1640 medium and culture overnight. On the assay day, two hundred thousand cells were pretreated with compound for 2 hours in 6-well plate, then stimulated by 100 ng/mL Gas6 ligand for 30 mins. Whole cell lysate was harvested by adding 2×SDS Sample Buffer. Proteins were separated by SDS-PAGE electrophoresis and transfer to PVDF membrane. Protein expression was detected using immunoblot with various primary antibodies and secondary antibodies following standard protocol. Antibody against p-AKT (Ser473) and anti-rabbit IgG, HRP-linked secondary antibodies were purchased from Cell Signaling Technology. Antibody against actin was purchased from Millipore. […] Band intensity of western blot was also quantified by ChemiDoc MP Imaging System. Relative intensity of bands corresponding to drug treatment were compared to the ligand alone group. The percentage (%) inhibition at each drug concentration was calculated using the formula: Percentage (%) inhibition=(1−Relative intensity)×100.

Row | Structure (SMILES) | inhibition at 0.1 µM [%]
1 | COc1nc(Nc2ccc(CN3CCC(C)CC3)cc2)nc2[nH]cc(-c3ccc(S(=O)(=O)N(C)C)cc3)c12 [Compound 5] | > 50
2 | CCN1CCN(Cc2ccc(Nc3nc(OCCOC)c4c(-c5ccc(OCc6ccccn6)cc5F)c[nH]c4n3)cc2)CC1 [Compound 19, N-(4-((4-ethylpiperazin-1-yl)methyl)phenyl)-5-(2-fluoro-4-(pyridin-2-ylmethoxy)phenyl)-4-(2-methoxyethoxy)-7H-pyrrolo[2,3-d]pyrimidin-2-amine] | > 50
3 | COc1nc(Nc2ccc(CN3CCN(C)CC3)cc2)nc2[nH]cc(-c3ccc(F)cc3F)c12 [Compound 25] | > 50
4 | COCCOc1nc(Nc2ccc(CN3CCC(C)CC3)cc2)nc2[nH]cc(-c3ccc(OCc4ncccn4)cc3F)c12 [Compound 34] | > 50
5 | CCN1CCN(Cc2ccc(Nc3nc(OCCOC)c4c(-c5ccc(OCc6ncccn6)cc5F)c[nH]c4n3)cc2)CC1 [Compound 39] | > 50
6 | COCCOc1nc(Nc2ccc(CN3CCN(C)CC3)cc2)nc2[nH]cc(-c3ccc(F)c(Cl)c3)c12 [Compound 50] | > 50
7 | CN1CCN(Cc2ccc(Nc3nc(OCC4CCCO4)c4c(-c5ccc(F)cc5F)c[nH]c4n3)cc2)CC1 (stereo not shown) [Compound 52] | > 50
8 | COCCOc1nc(Nc2ccc(CN3CCN(C)CC3)cc2)nc2[nH]cc(-c3ccc(F)cc3F)c12 [Compound 53] | > 50
9 | COCCOc1nc(Nc2ccc(CN3CCN(C)CC3)cc2)nc2[nH]cc(-c3ccc4nc(C)oc4c3)c12 [Compound 64] | > 50
10 | COCCOc1nc(Nc2ccc(CN3CCN(C)CC3)cc2)nc2[nH]cc(-c3ccc(OCn4ccccc4=O)cc3F)c12 [Compound 68] | > 50
11 | CN1CCN(Cc2ccc(Nc3nc(NC4CCOCC4)c4c(-c5ccc(F)cc5F)c[nH]c4n3)cc2)CC1 [Compound 75, 5-(2,4-difluorophenyl)-N2-(4-((4-methylpiperazin-1-yl)methyl)phenyl)-N4-(tetrahydro-2H-pyran-4-yl)-7H-pyrrolo[2,3-d]pyrimidine-2,4-diamine] | > 50
12 | COCCOc1nc(Nc2ccc(CN3CCN(C)CC3)cc2)nc2[nH]cc(-c3ccc(S(=O)(=O)N(C)C)cc3)c12 [Compound 79] | > 50
13 | COCCOc1nc(Nc2ccc(CN3CCN(C)CC3)cc2)nc2[nH]cc(-c3ccc(OCc4ncccn4)cc3F)c12 [Compound 107] | > 50
